From paper PMC9394386 (Cancer Discovery, 2022)

How the values were obtained:
[1] = target: T1, Recombinant human PD-L2 with His-tag (human, UniProt Q9BQ51); assay: AlphaScreen or HTRF
T1 sequence: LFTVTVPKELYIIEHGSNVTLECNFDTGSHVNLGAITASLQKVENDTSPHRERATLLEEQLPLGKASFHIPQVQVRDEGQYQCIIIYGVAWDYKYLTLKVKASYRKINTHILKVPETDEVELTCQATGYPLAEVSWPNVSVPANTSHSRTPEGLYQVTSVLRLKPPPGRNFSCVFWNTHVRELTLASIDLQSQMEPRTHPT

[2] = target: Recombinant mouse PD-L1 with His-tag (mouse, UniProt Q9EP73); assay: AlphaScreen or HTRF

B1: Recombinant human PD-1 protein with an Fc tag (Fc fusion)
chain: LDSPDRPWNPPTFSPALLVVTEGDNATFTCSFSNTSESFVLNWYRMSPSNQTDKLAAFPEDRSQPGQDCRFRVTQLPNGRDFHMSVVRARRNDSGTYLCGAISLAPKAQIKESLRAELRVTERRAEVPTAHPSPSPRPAGQFQTLV
Does B1 bind [1]?
Result: binds

Does B1 bind [2]?
Result: binds
